{"sequences": {"note": "The chains behind the UniProt entries cited, without tags or fusion partners.", "UniProt P33261, whole entry": "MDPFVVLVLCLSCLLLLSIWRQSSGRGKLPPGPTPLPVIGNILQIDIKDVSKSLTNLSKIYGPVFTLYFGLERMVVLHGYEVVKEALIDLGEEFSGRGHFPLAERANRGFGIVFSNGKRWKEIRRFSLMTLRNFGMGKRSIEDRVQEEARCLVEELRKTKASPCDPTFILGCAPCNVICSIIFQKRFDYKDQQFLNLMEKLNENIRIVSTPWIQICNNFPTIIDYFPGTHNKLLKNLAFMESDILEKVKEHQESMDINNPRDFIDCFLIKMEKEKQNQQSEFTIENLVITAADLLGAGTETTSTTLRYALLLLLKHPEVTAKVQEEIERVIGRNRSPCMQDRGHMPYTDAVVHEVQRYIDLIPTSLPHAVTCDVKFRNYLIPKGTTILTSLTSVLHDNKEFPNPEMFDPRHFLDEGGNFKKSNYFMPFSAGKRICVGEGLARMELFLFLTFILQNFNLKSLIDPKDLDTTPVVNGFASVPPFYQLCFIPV"}, "source": "PubChem BioAssay AID778", "about": "(Sanford-Burnham Center for Chemical Genomics, 2007)", "note": "The list shows a part of the results, in another mix than the full data. The source made the active and inactive calls.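 Rule for the calls: active = CYP2C19 inhibition above a set limit at 5 µM in the primary screen (cut at about 50% in these data); inactive = the rest.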", "data": [{"target": "Cytochrome P450 2C19 (Homo sapiens) (UniProt P33261)", "assay": "blockers of cytochrome P450 2C19 activity – biochemical, luminescence, ADME assay, primary screen (AID 778);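 note: plate controls were negative control wells for no effect and 2.5 mM tranylcypromine positive control for full effect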", "conditions": "CYP2C19 Supersomes, luciferin-H EGE luminescence, 30 min; at 5 µM; stronger effect = higher value", "values": [{"molecule": "Fc1ccccc1NC1CCN(Cc2ccccc2)CC1", "inhibition": "active: 85.5%"}, {"molecule": "CCOc1ncccc1C(=O)NCC1(N2CCOCC2)CCCCC1", "inhibition": "inactive: 48.1%"}, {"molecule": "CCC(CO)(C(=O)OC1CN2CCC1CC2)c1ccccc1", "note": "(stereo not given)", "inhibition": "inactive: 2.6%"}, {"molecule": "N/C(=N\\O)c1c(N)no[n+]1[O-]", "inhibition": "inactive: -4.3%"}, {"molecule": "c1ccc(CN2CCC(Nc3ccccc3)CC2)cc1", "inhibition": "active: 87.2%"}, {"molecule": "N#CC1(Nc2ccccc2)CCN(CCc2ccccc2)CC1", "inhibition": "inactive: 38.8%"}, {"molecule": "O=C(NCC1(N2CCOCC2)CCCCC1)c1cc(=O)[nH]c2ccccc12", "inhibition": "inactive: -14.5%"}, {"molecule": "O=C(NCC1(N2CCOCC2)CCCCC1)c1cc2ccccc2o1", "inhibition": "inactive: 13.5%"}, {"molecule": "O=C(OC1CN2CCC1CC2)C1c2ccccc2Oc2ccccc21", "note": "(stereo not given)", "inhibition": "inactive: 8.7%"}, {"molecule": "COc1ccc(NC2CCN(CCc3ccccc3)CC2)c(OC)c1", "inhibition": "inactive: -2.4%"}]}]}
